# Ab-14 light chain CDR variants: yeast mating affinities

The measurements come from Li et al. 2023 (doi:10.1038/s41467-023-39022-2) through the FLAb antibody collection.

Target: peptide PDVDLGDISGINAS, taken from heptad repeat 2 (HR2) of SARS-CoV-2 spike.

Parent scFv Ab-14: VH joined to VL by a 15-residue (Gly4Ser)3 linker. Changes lie in the light chain CDRs alone.
VH: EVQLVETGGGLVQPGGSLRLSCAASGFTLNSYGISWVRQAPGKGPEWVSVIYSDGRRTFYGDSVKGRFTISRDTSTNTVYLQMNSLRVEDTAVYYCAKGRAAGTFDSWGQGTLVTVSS
VL: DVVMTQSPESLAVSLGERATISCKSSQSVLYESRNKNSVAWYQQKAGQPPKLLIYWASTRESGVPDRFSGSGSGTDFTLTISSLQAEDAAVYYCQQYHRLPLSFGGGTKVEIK

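The parent was found by panning a naive human phage display library on the peptide. These sequences belong to a second round, designed from the earlier measurements on random variants of the parent. Several design methods are mixed in this list. In AlphaSeq, yeast of one mating type display the scFv and yeast of the other type display the target. Pairs that bind mate more often; barcode pairs of the diploids are counted by sequencing. A regression on co-assayed BCL2-family reference pairs converts the normalised counts of each replicate to an apparent Kd. There are six technical replicates.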

Each variant is given by its three light chain CDRs, as the data file delimits them; those of the parent are KSSQSVLYESRNKNSVA, WASTRES, QQYHRLPLS. This list holds designs with more than six substitutions. Values are log10 of the apparent Kd in nM; lower means stronger binding. Averages over replicates are reported, and they cover detected replicates only. "nd" marks a missing value. The strain was present, yet no cells mated with the target were sequenced in that replicate, which points to weak or no binding. In the paper, a design with two or fewer of six values counts as a poor binder.

KLSQMDLYESRMSNSVA, MASTRYV, QQYHRLPLS: 0.78, 1.00, 0.87, 0.67, 0.88, 1.00 (mean 0.87; controls 1 of 18).
NVHALMNHSSEFQQSIA, DEECRDA, QQYFRLPLS: 1.64, 1.44, 1.00, 1.16, 1.70, 1.68 (mean 1.44; controls 1 of 18).
MISQLMNLGQFAINSVA, QATIRNS, QQYDRLPLI: 2.49, 2.33, 2.02, nd, 3.59, 3.09 (mean 2.70; controls 1 of 18).
KVSQSELGQERNKMSVA, QASTREK, QQYHRLPLS: 0.10, -0.01, -0.12, -0.22, -0.24, 0.05 (mean -0.07; controls 2 of 18).
HISMSMNWLSRNKNSIA, EESTRED, QQYHRLPLS: -0.61, 0.01, -0.42, -0.22, -0.22, -0.25 (mean -0.29; controls 0 of 18).
KASMLHDYESRNKNSVA, QASTRES, QDYHRLPLS: 0.63, 0.19, 0.05, 0.14, 0.80, 0.23 (mean 0.34; controls 0 of 18).
KIQDFLGTLMEQINSIA, NSEEIVQ, QSYFRLPLS: 1.67, 1.13, 1.29, 1.47, 0.52, 1.27 (mean 1.22; controls 1 of 18).
HISPMQAMHYEAKNQVA, DTETKLN, QQYIRLPLS: 0.30, 0.02, 0.18, -0.31, 0.39, 0.03 (mean 0.10; controls 0 of 18).
MLSMMEQHMGDMMHNVA, DANVAKM, QDYFRLPLM: nd, nd, nd, nd, nd, nd (controls 0 of 18).
MISQLFMYGSRNYNSVA, QASTREP, QQYDRLPLI: 0.76, 1.20, 0.96, 1.11, 1.33, 1.13 (mean 1.08; controls 0 of 18).
KLSVMQSYLSVNKNSVA, EMTTREN, QQYDRLPLS: 0.96, 0.81, 0.73, 0.53, 1.07, 0.30 (mean 0.73; controls 0 of 18).
KIGMTLNQLYEKQNNVA, DLVMREN, QQYHRLPLS: 0.63, 0.06, 0.11, 0.09, 0.64, 0.45 (mean 0.33; controls 0 of 18).
KLQQSWEYESRNSNSVA, QASTRMA, QQYHRLPLI: 0.61, 0.72, 0.64, 0.60, 0.89, 0.81 (mean 0.71; controls 2 of 18).
KVSGFMRGLMMRKDSIA, DNETRSQ, QQYDRLPLS: 1.66, 2.03, 1.72, 2.54, 1.53, 1.76 (mean 1.87; controls 3 of 18).
HLELKVGGVQAVGYSVA, HASQRQA, QQYYQLPLT: 0.91, 0.36, 0.16, -0.01, 0.34, 0.37 (mean 0.36; controls 0 of 18).
KMSQSNPYEDRNWNSVA, NASKRLS, QQYHRLPLS: 0.13, 0.01, 0.26, -0.05, 0.32, 0.77 (mean 0.24; controls 0 of 18).
VMFMGLYWNNDETYAIA, DVTMKEK, QQYNRLPLM: nd, nd, nd, nd, nd, nd (controls 0 of 18).
KLSWDDMSHFNTRSAVA, DMTMRAF, QQYNRLPLD: 0.36, 0.28, 0.22, 0.14, 0.11, 0.30 (mean 0.24; controls 1 of 18).
KMSQSVDLESRNWNAVA, MASTRMD, QQYHRLPLS: 0.37, 0.81, 0.56, 0.92, 0.21, 0.33 (mean 0.53; controls 0 of 18).
KLVQFMNRGTHHTSNIA, DAQNRID, QQYARLPLF: 0.50, 0.45, 0.39, 0.47, 0.53, 0.51 (mean 0.48; controls 0 of 18).
KVSYSVEYQERNKNSVA, QASQRES, QQYHRLPLS: 0.14, 0.15, -0.28, 0.07, 0.22, 0.22 (mean 0.09; controls 1 of 18).
IVSQLMLWGYKAKNSIA, EAQTRVN, QQYDRLPLI: 1.03, 1.90, 0.82, nd, 0.59, 1.37 (mean 1.14; controls 0 of 18).
KLYMSTGYEMRNADSIA, DNSTRGR, QQYHRLPLS: nd, 2.63, nd, nd, 2.94, nd (mean 2.79; controls 0 of 18).
KLSQLVEMESRWWNSVA, SASQRNE, QQYHRLPLS: nd, 2.36, 1.21, nd, 2.37, 1.59 (mean 1.88; controls 0 of 18).
ILSMSELYGDRMKNSVA, NASQREQ, QQYHRLPLS: 0.08, -0.08, 0.03, -0.09, -0.12, 0.03 (mean -0.03; controls 0 of 18).
KISGMYQKESKNRNSVA, EMVNRES, QQYDRLPLS: 0.90, 0.45, 0.58, 1.00, 0.66, 0.76 (mean 0.72; controls 0 of 18).
IISQSVLGEYHNKNSVA, QTSERGQ, QQYDRLPLS: 0.56, 0.59, 0.60, 0.59, 0.40, 0.90 (mean 0.61; controls 0 of 18).
TLTQVQGMESHNHDNVA, DLSTRGS, QQYHRLPLS: -0.31, 0.02, -0.20, -0.24, -0.25, -0.17 (mean -0.19; controls 0 of 18).
KLTVMGLHQSIDKKSIA, ERSTREN, QQYHRLPLS: 0.58, 0.59, 0.67, 0.40, 0.81, 0.50 (mean 0.59; controls 0 of 18).
KMETYSQDNRLTISAIA, EAQTIYQ, QQYARLPLS: nd, nd, nd, nd, nd, nd (controls 0 of 18).
KVQQSMLYESRNHNNVA, AASDRES, QQYHRLPLS: -0.41, -0.39, -0.38, -0.44, -0.64, -0.26 (mean -0.42; controls 1 of 18).
KISQEDPYENRNHNSVA, HASLRES, QQYHRLPLS: 0.33, 0.22, 0.11, 0.00, 0.11, 0.25 (mean 0.17; controls 2 of 18).
MMSQMFEGLTTSKNPVA, QVSTREE, QQYHRLPLS: nd, 2.06, 2.75, nd, 1.74, 1.11 (mean 1.91; controls 0 of 18).
KVSMQQLYSSRNKNSVA, DANTRES, QQYHRLPLS: 0.32, -0.19, -0.20, -0.40, 0.06, -0.09 (mean -0.08; controls 0 of 18).
SIGGHMKSLSAHMNSVA, DMTNRED, QQYDRLPLS: 0.90, 0.75, 1.08, 0.99, 0.88, 1.08 (mean 0.94; controls 2 of 18).
KLRMLTLTGGYFKNSVA, QAETREN, QSYHRLPLS: 2.47, 1.66, 1.49, 1.31, 1.36, 1.42 (mean 1.62; controls 0 of 18).

Picked from the list: the 6 lowest averages where every replicate gave a value.

The variant KVQQSMLYESRNHNNVA, AASDRES, QQYHRLPLS showed -0.41, -0.39, -0.38, -0.44, -0.64, -0.26 (mean -0.42; controls 1 of 18).
The variant HISMSMNWLSRNKNSIA, EESTRED, QQYHRLPLS showed -0.61, 0.01, -0.42, -0.22, -0.22, -0.25 (mean -0.29; controls 0 of 18).
The variant TLTQVQGMESHNHDNVA, DLSTRGS, QQYHRLPLS showed -0.31, 0.02, -0.20, -0.24, -0.25, -0.17 (mean -0.19; controls 0 of 18).
The variant KVSMQQLYSSRNKNSVA, DANTRES, QQYHRLPLS showed 0.32, -0.19, -0.20, -0.40, 0.06, -0.09 (mean -0.08; controls 0 of 18).
The variant KVSQSELGQERNKMSVA, QASTREK, QQYHRLPLS showed 0.10, -0.01, -0.12, -0.22, -0.24, 0.05 (mean -0.07; controls 2 of 18).
The variant ILSMSELYGDRMKNSVA, NASQREQ, QQYHRLPLS showed 0.08, -0.08, 0.03, -0.09, -0.12, 0.03 (mean -0.03; controls 0 of 18).

Nonspecific signal, from three strains lacking the peptide, appeared in 4% of pairings of all light chain designs, centred on 2.64 (5% of these signals below 1.59); values are not corrected for it. Also given: how often the same scFv was detected with the empty control strains. A sequence measured in both rounds can read differently, since the two assays cover different ranges. The parent sequence was in this pool as ten entries: three were never detected, three once, and four in most replicates, with averages from 0.34 to 2.37.